Experimental data as given in patent publication US9408793B2, “Selective compounds inhibiting CYP26A1 useful in cosmetic and pharmaceutical compositions” (GALDERMA RESEARCH & DEVELOPMENT, priority 2012, dated 2016).

Target: T1, human CYP26A1 enzyme (Homo sapiens, UniProt O43174)
T1 construct: expressed in transfected cells; host or cells: HeLa cells
T1 sequence (O43174 1-497): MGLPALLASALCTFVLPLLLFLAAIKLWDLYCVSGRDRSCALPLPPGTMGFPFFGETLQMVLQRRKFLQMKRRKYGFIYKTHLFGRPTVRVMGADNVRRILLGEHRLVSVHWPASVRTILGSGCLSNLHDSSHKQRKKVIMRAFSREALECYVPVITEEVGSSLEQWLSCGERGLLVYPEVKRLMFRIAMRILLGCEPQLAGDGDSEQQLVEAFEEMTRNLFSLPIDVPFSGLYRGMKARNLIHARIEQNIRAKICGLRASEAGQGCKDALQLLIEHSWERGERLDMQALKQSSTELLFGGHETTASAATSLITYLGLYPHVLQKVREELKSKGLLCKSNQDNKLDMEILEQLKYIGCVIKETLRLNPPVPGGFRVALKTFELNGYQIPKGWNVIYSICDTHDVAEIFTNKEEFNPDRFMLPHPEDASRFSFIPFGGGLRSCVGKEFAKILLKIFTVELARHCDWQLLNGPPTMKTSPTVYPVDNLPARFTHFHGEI
Assay: Cell test, HeLa cells overexpressing human CYP26A1, metabolism of radiolabelled retinoic acid (3H-RA)
Format: cell-based
Conditions: 3 h incubation with 3H-RA, mean of two experiments
Protocol: A cell test using HeLa cells overexpressing either the human CYP26A1 enzyme or the human CYP26B1 enzyme, similar to that described in White et al.(Proc Natl Acad Sci U S A. 2000 Jun 6; 97(12): 6403-8), was used. Briefly, the cells were plated out in multiple-well plates and treated with the compounds according to the invention or the positive controls such as liarozole or rambazole, and subsequently exposed to radiolabelled retinoic acid (3H-RA). After the incubation time of 3 h, the reaction was stopped and an extraction phase was carried out in order to separate the aqueous and organic layers. The amount of radioactivity present in the aqueous layer was then measured as an indicator of the amount of RA which was metabolized.
A first experiment using 3 different concentrations of compounds according to the invention (0.1, 1 and 10 μM) was carried out in order to evaluate the inhibitory activity of the compounds. A second test was then carried out with a wide range of concentrations (0.01, 0.1, 0.5, 1, 5 and 10 μM). The results obtained during these two tests are similar.
The following table lists the mean of the AC50 values obtained over these two experiments.

AC50: 4 µM
Structure (SMILES): Clc1cccc(C(c2ccc3[nH]cnc3c2)n2ccnc2)c1 (stereo not shown) [Liarozole]
